The results in this text go back to US20190307754A1, “PDE9 INHIBITORS FOR TREATMENT OF PERIPHERAL DISEASES” (IMARA, INC., priority 2016, published 2019).

One data set in a line: in vivo. The settings on record: male, CD, mouse, sc, 10 mg/kg.
Data set [1] is described as follows: Plasma, brain and eye exposure in C57Bl/6J mice. The data set is classed as in vivo. The conditions noted are these: male, mouse, oral, gavage, Day 5, 30 minutes after dosing. The method, then: The exposure of both compounds was also evaluated in the plasma, brain, and eye. A total of 75 male C57Bl/6J mice, aged 7-8 weeks, were divided into 5 groups each of 15 males, and were dosed by gavage, once daily for 5 days, with either vehicle, Compound P3.1 at 10 or 30 mg/kg/day or AF27873 at 10 or 30 mg/kg/day. During the treatment period all animals were assessed for contextual fear conditioning and a subset of 7 animals per group was evaluated for locomotor activity. On Day 5, plasma, brain, and eye tissue were collected 30 minutes after dosing from 3 animals per treated group to measure concentrations of test item.

Each structure is given as a SMILES string.

`C[C@@H]1CN(Cc2ncccn2)C[C@H]1c1nc2c(cnn2C2CCOCC2)c(=O)[nH]1` (single isomer, unassigned) [AF27873, reference compound] had a Kp at 0.5 h in the data set “in vivo” (brain) of 0.41. In “in vivo” (brain/plasma), this molecule displayed a Kp at 2 h of 0.41. Moreover, the results for the concentration at 30 min in data set [1] (10 mg/kg/day) and in data set [1] (30 mg/kg/day) were 3.22 µM and 13.1 µM, respectively.
